Test results: publication PMC10465125 (eLife, 2023)

Assays:
293T-ACE2 cells = test: Cytotoxicity assay (MTT), 293T-ACE2; type: cell-based, human; conditions: 24 hr, tested concentrations given in μg/ml
Description: (§1) The human embryonic kidney cells 293T stably expressing recombinant human ACE2 (293T-ACE2) were maintained in DMEM containing 10% FBS, 1% P/S, and […] hygromycin. The NCI-H460 cell line (human non-small cell lung cancer cells) was preserved in Modified Eagle’s Medium (MEM, Gibco, USA) supplemented with 10% FBS and 1% P/S. The VeroE6 cell line (African green monkey kidney cells) was grown in Dulbecco’s Modified Eagle’s Medium (DMEM, Gibco) supplemented with 10% fetal bovine serum (FBS, Gibco), 1× GlutaMAX (Gibco), and 1% penicillin/streptomycin (P/S, Hyclone, USA). All these cells were cultured at 37°C and 5% CO2. All cell lines are checked annually for mycoplasma contamination, and human cell lines were authenticated through STR profiling.
(§2) […]. The medium was removed, and viable cells were detected with MTT assay (Cyrusbioscience, Taiwan), which was read by absorbance at 570 nm by an ELISA reader. All experiments were performed independently in triplicates and repeated three times.

NCI-H460 cells = test: Cytotoxicity assay (MTT), NCI-H460; type: cell-based, human; conditions: 24 hr, tested concentrations given in μg/ml
Description: as §1, §2

VeroE6 cells = test: Cytotoxicity assay (MTT), VeroE6; type: cell-based, African green monkey; conditions: tested concentrations given in μg/ml
Description: as §1, §2

tannic acid [reference compound]
CC50 (median cytotoxic concentration) (293T-ACE2 cells): 143.9±11.58
CC50 (median cytotoxic concentration) (NCI-H460 cells): 71.57±4.98
CC50 (median cytotoxic concentration) (VeroE6 cells): 128.70±11.22
